Source: PubChem (National Center for Advancing Translational Sciences (NCATS))
Nrf2 inh: inhibitors of Nrf2 signaling | A549 ARE-Fluc reporter, luciferase luminescence, 18-24 h | Potency, µM (highest dose often 46 µM), actives largely listed as inhibitors | 360,000 compounds, 2.1% hits; also: nearly all actives have a fitted effect of over 60% in size
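Two sequential reads on A549 ARE_Fluc cells exposed to compound for 18-24 h: a CellTiter-Fluor fluorescence read for viability, then a luciferase luminescence read for Nrf2/ARE activity.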
Nrf2 ARE act: activates Nrf2 signaling. AREc32 ARE-luciferase reporter (MCF7-derived line), luminescence, 24 h. Potency, µM (titrated, usually from 46.1 µM), most hits filed as activators. 410,000 compounds, 0.31% hits; also: nearly all actives have a fitted effect of over 65% in size
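For detection, Steady-Glo was added and plates sat 30 min at RT; before that, AREc32_Fluc cells grown overnight in OPTI-MEM/5% FBS had been treated with 23 nL compound for 24 hr at 37 deg C.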
miR-21 reporter: miR-21 reporter, rising signal | Potency, µM (highest dose often 38.3 µM) | 340,000 tested, under 10 active | HeLa miR-21 FLuc reporter, luciferase, 48 h; active = well fitted rising curve with a large enough effect; inconclusive = small, poorly fitted or top-dose-only effect; inactive = no such curve, though single readings can be large or run the other way;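 note: miR-21 action dims this reporter so a rising signal means less miR-21 action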
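Using DMEM plus 10% FBS, HeLa miR-21-FLuc cells are incubated with test compounds (final up to about 40uM) for 48 hours; firefly luciferase signal is then imaged following reagent-mediated lysis.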
TCR activator: activates T cell receptor signaling; primary human leukocytes, anti-CD3, IL-2 HTRF, 48 h; Potency, µM (titrated, usually from 9.22 µM), usual class: activators; 330,000 tested, under 10 active
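48 hr co-incubation of compounds, a-CD3 beads and primary human leukocytes; IL-2 quantified homogeneously by HTRF with anti-IL-2 K and d2 conjugates.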
A549 tox: counter-screen for Nrf2 inhibitors: cytotoxicity in A549 cells; A549 ARE-Fluc cells, CellTiter-Fluor viability, 18-24 h; 390,000 compounds, 0.16% hits; AID 504648; Potency, µM (highest dose often 46 µM), actives largely listed as inhibitors
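Cytotoxicity counterscreen: CellTiter-Fluor fluorescence was measured in A549 ARE_Fluc cells after 18-24 h of compound exposure in a concentration series. The subsequent BugLite luminescent read reports ARE-luciferase activity.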
ClpP mod: qHTS Assay for Activators of ClpP; ATP-dependent Clp protease proteolytic subunit (Bacillus subtilis (strain 168)), P80244; purified B. subtilis ClpP, FRET peptide cleavage, 20 min; Potency, µM (doses to about 57.5 µM); 340,000 compounds, 1.9% hits; AID 651965, 2013; active = well fitted falling curve with a large enough effect; inconclusive = small, poorly fitted or top-dose-only effect; inactive = no such curve, though single readings can be large or run the other way; also: the source files actives as falling curves though it sought activators and does not explain the sign; nearly all actives have a fitted effect of over 65% in size
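ClpP 10 microg/mL final, pH 8 Tris/KCl buffer with BSA, glycerol, Tween-20; compound pinned in; FRET-FV substrate; RT 20 min; Ex320/Em430; ΔFRET vs ADEP 5.8 microM, DMSO, no enzyme.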
A number is an active result. This is a sample that favours compounds with a hit; in the whole collection about 3.7% have one here. Unless noted, calls follow the shape of the dose curve; as a rule, active = well fitted curve in the direction sought with a large enough effect; inconclusive = small, poorly fitted or top-dose-only effect, or another doubt; inactive = no such curve, though single readings can be large; an effect the other way counts as inactive or inconclusive.

How did COc1ccc(C(=O)NC(=S)NNC(=O)[C@H]2C[C@@H]2c2ccccc2)cc1OC do in these assays?
Nrf2 inh: 16.4µM; Nrf2 ARE act: inactive; miR-21 reporter: inactive; TCR activator: inactive; A549 tox: inactive

How did COc1cc(OC)cc(C(=O)NC(=S)Nc2ccc3c4c(cccc24)CC3)c1 do in these assays?
Nrf2 ARE act: inactive; miR-21 reporter: inactive; TCR activator: inactive; A549 tox: inactive; ClpP mod: inactive

How did COc1ccc(C(=O)NC(=S)Nc2ccc3c4c(cccc24)CC3)cc1OC do in these assays?
Nrf2 inh: 7.31µM; Nrf2 ARE act: inactive; miR-21 reporter: inactive; TCR activator: inactive; A549 tox: inactive; ClpP mod: inactive

Results for COc1cc(OC)cc(C(=O)NC(=S)NNC(=O)[C@H]2C[C@@H]2c2ccccc2)c1 ?
Nrf2 inh: inconclusive; Nrf2 ARE act: inactive; miR-21 reporter: inactive; TCR activator: inactive; A549 tox: inactive

What do the screens show for `CC(C)CN(C(=O)c1ccc(-n2cncn2)c([N+](=O)[O-])c1)C1CCS(=O)(=O)C1` (centres undefined)?
Nrf2 inh: inactive; Nrf2 ARE act: inactive; TCR activator: inactive; A549 tox: inactive; ClpP mod: inactive

How did COc1cc(N)c(N)cc1OC do in these assays?
ClpP mod: inactive

Results for CCOC(=O)c1c(OCC)[nH]c2c1cc(O)c1ccccc12 ?
Nrf2 inh: inactive; Nrf2 ARE act: inactive; miR-21 reporter: inactive; TCR activator: inactive; A549 tox: inactive; ClpP mod: 22.4µM

Results for COc1cccc(N2CC(NC(=O)c3cccs3)CC2=O)c1 (centres undefined) ?
Nrf2 ARE act: inactive; miR-21 reporter: inactive; A549 tox: inactive; ClpP mod: inactive

What do the screens show for `O=C(O)CC(=O)NC12CC3CC(CC(C3)C1)C2`?
Nrf2 inh: inconclusive; Nrf2 ARE act: inactive; miR-21 reporter: inactive; TCR activator: inactive; A549 tox: inactive; ClpP mod: inactive

What do the screens show for `CC(C)NCC(=O)NC12CC3CC(CC(C3)C1)C2`?
Nrf2 inh: inactive; Nrf2 ARE act: inactive; miR-21 reporter: inactive; TCR activator: inactive; A549 tox: inactive; ClpP mod: 15.8µM

What do the screens show for `O=C(Cc1nnc(CNC(=O)c2ccccc2)o1)Nc1cc(C(F)(F)F)ccc1Cl`?
Nrf2 inh: inactive; A549 tox: inactive

How did Cc1ccc(NC(=O)Cc2nc(-c3c[nH]c(C(=O)N4CCCC4)c3)cs2)c(C)c1 do in these assays?
Nrf2 inh: 20.6µM; Nrf2 ARE act: inactive; TCR activator: inactive; A549 tox: inactive; ClpP mod: inactive

What do the screens show for `COc1cccc(N2CC(O)=C(c3nc4ccccc4c(=O)[nH]3)C2=N)c1`?
Nrf2 inh: inconclusive; Nrf2 ARE act: inactive; miR-21 reporter: inactive; TCR activator: inactive; A549 tox: inactive; ClpP mod: 25.1µM

What do the screens show for `CC(C)N1CC(O)=C(c2nc3ccccc3c(=O)[nH]2)C1=N`?
Nrf2 ARE act: inactive; miR-21 reporter: inactive; TCR activator: inactive; A549 tox: inactive; ClpP mod: 28.2µM

Results for C#CCN(CC(=O)OCC)S(=O)(=O)CCNC1CC1 ?
Nrf2 ARE act: inactive; ClpP mod: inactive

What do the screens show for `O=[N+]([O-])c1ccccc1S(=O)(=O)Oc1ccc(/C=N/n2cnnc2)cc1`?
Nrf2 inh: inactive; Nrf2 ARE act: inconclusive; miR-21 reporter: inactive; TCR activator: inactive; A549 tox: inconclusive; ClpP mod: inactive

Results for COc1cc(/C=N/n2cnnc2)ccc1OS(=O)(=O)c1ccccc1[N+](=O)[O-] ?
Nrf2 inh: inactive; Nrf2 ARE act: 12.6µM; miR-21 reporter: inactive; TCR activator: inactive; A549 tox: inactive; ClpP mod: inactive

Results for CC(=O)Nc1cc(C(=O)NCc2ccc(F)cc2)ccc1Sc1ccc(C)cc1 ?
Nrf2 ARE act: inactive; miR-21 reporter: inactive; A549 tox: inactive; ClpP mod: inactive

How did COc1cc(NC(=O)Nc2nnc([C@H]3C[C@H](O)[C@@H](CO)O3)s2)cc(OC)c1OC do in these assays?
Nrf2 ARE act: inactive; ClpP mod: inactive
